Data taken from PMC10891983, “First Description of Marinoquinoline Derivatives’ Activity against Toxoplasma gondii” (Pharmaceutics, 2024).
Like-named read-outs stand apart in the source and are kept apart here.

Tested on: T. gondii tachyzoites
Type: cell-based, Toxoplasma gondii
Conditions: CC50 (HFF)/EC50 (T. gondii)

Q: With CCc1nc(N)nc(N)c1-c1ccc(Cl)cc1 [PYR, pyrimethamine, reference compound] as the molecule, how does the “SI (Selectivity index)” value read?
A: 237.65

Q: What about the “SI (Selectivity index)” value (listed as pyrimethamine) of the same molecule?
A: > 10
